Data reported in ChEMBL document CHEMBL1127846, “Influence of amine substituents on 5-HT2A versus 5-HT2C binding of phenylalkyl- and indolylalkylamines” (J Med Chem, 1994).

Target: T1, 5-hydroxytryptamine receptor 2C (Rattus norvegicus, UniProt P08909)
T1 sequence (P08909 whole entry): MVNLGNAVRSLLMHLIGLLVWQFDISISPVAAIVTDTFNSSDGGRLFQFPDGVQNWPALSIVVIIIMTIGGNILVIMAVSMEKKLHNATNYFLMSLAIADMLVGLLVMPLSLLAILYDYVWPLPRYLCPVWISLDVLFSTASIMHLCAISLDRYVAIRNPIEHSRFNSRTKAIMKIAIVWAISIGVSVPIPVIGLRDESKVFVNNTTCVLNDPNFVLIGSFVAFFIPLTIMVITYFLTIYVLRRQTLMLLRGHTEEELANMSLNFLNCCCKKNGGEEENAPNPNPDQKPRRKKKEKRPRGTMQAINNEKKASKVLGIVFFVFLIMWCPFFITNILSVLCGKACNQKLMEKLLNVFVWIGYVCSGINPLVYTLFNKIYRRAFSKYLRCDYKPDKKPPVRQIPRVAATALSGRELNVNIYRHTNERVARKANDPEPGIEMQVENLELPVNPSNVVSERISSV
Test: Affinity against 5-hydroxytryptamine 2C receptor in J1 cells transfected with the rat 5-HT2C gene labeled with [3H]mesulergine.
Type: cell-based
Outline: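 Homogenates of J1 cells carrying the rat 5-HT1C (5-HT2C) gene, labeled with [3H]mesulergine. Competing drug and radioligand incubated at 37 °C for 30 min, then filtered through glass-fiber filters and counted by liquid scintillation. Ki given as mean and SEM of at least two experiments, each done in triplicate.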

Compound: COc1ccc2[nH]cc(CCN(C)C)c2c1 [MEBUFOTENIN]
- Ki: 960 nM
